Tests used:
E. coli EB53 (hemPR^+) = assay: Growth inhibition on Nutrient Broth Dipyridyl plates; conditions: NBD 0.1 mM plates
bacteria = type: cell-based; conditions: absence of Hb/heme

SMILES | inhibition of growth (E. coli EB53 (hemPR^+)) | inhibition of growth of heme-utilizing bacteria (bacteria)
C=Cc1c2[n-]c(c1C)/C=c1\[n-]/c(c(C)c1C=C)=C\c1[n-]c(c(CCC(=O)O)c1C)C=c1[n-]/c(c(C)c1CCC(=O)O)=C\2.[Sn+4] [Sn-PPIX, tin-protoporphyrin IX] | but not Sn-PPIX and Mn-meso-tetra-4-sulfonatophenyl porphine, inhibited growth | –
O=S(=O)([O-])c1ccc(-c2c3nc(c(-c4ccc(S(=O)(=O)[O-])cc4)c4ccc([n-]4)c(-c4ccc(S(=O)(=O)[O-])cc4)c4nc(c(-c5ccc(S(=O)(=O)[O-])cc5)c5ccc2[n-]5)C=C4)C=C3)cc1.[Cl-].[Mn+3] [Mn-meso, Mnmeso-tetra(4-sulfonatophenyl)-porphine chloride] | but not Sn-PPIX and Mn-meso-tetra-4-sulfonatophenyl porphine, inhibited growth | –
C=CC1=C(C)c2cc3[n-]c(cc4[n-]c(cc5nc(cc1n2)C(C)=C5C=C)c(C)c4CCC(=O)[O-])c(CCC(=O)[O-])c3C.[H+].[H+].[Mn+2] [Mn-PPIX, Manganese protoporphyrin IX] | – | inhibited growth of heme-utilizing bacteria in the absence of Hb/heme
